Sequences of proteins named here, by UniProt entry; tags and fusion partners are left off.
UniProt P62937, whole entry, species assumed: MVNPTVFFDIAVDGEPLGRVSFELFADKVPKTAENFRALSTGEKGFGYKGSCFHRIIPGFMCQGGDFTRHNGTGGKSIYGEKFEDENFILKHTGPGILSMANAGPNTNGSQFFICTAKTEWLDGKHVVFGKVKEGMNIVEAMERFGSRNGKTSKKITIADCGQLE

According to patent publication US20200199102A1, “COMPOUNDS THAT PARTICIPATE IN COOPERATIVE BINDING AND USES THEREOF” (Revolution Medicines, Inc., priority 2017, published 2020):

Biological target: T1, Cyclophilin A (Homo sapiens, UniProt P62937)
T1 construct: made in house
Test: AlphaLISA inhibition of binding of biotinylated Cyclosporin A to FLAG tagged Cyclophilin A
Conditions: test concentration not given
From the text: The binding of compounds of the invention to Cyclophilin A can be determined using the following protocol.
This protocol utilizes Perkin Elmers AlphaLISA technology platform to detect cyclosporine analogues by measuring the inhibition of binding of biotinylated Cyclosporin A to FLAG tagged Cyclophilin A.
10×TBST Buffer (Boston BioProducts IBB-181), Biotinylated Cyclosporin A (in-house), FLAG tagged Cyclophilin A (in-house); anti-FLAG Donor beads (PerkinElmer AS103) and Streptavidin Acceptor beads (PerkinElmer AL125); Compounds in DMSO (in-house), Cyclosporin A (LC Labs Cat #C-6000).
Add 20 uL of 6 nM Biotinylated CsA working stock to each well of the 96-well plate. Add 1 uL of test compound (100% DMSO) to each well of the plate using the Janus MTD head and P20 tips (except control wells). Add 1 uL of DMSO to negative control wells and 1 uL of 500 uM Cyclosporin A solution to positive control wells. In the dark, add 20 uL of combined Donor/Acceptor beads to each well. Incubate in the dark for 30 minutes at room temperature. In the dark, add 10 uL of 25 nM Flag tagged CypA working stock to each well. Incubate in the dark for 60 minutes at room temperature. Protect plate from light until reading on Biotek Synergy2 Plate Reader; Alphalisa 96-well protocol (680 excitation/615 emission).

Row | Compound | % inhibition of CsA binding to Cyclophilin A [%]
1 | C/C=C/C[C@@H](C)[C@@H](O)[C@H]1C(=O)N[C@@H](CC)C(=O)N(C)CC(=O)N(C)[C@@H](CC(C)C)C(=O)N[C@@H](CC(C)C)C(=O)N(C)[C@@H](C)C(=O)N[C@@H](C)C(=O)N[C@H](C)C(=O)N(C)[C@@H](CC(C)C)C(=O)N(C)[C@@H](CC(C)C)C(=O)N(C)[C@@H](C(C)C)C(=O)N1C [Compound C14] | 90.64
2 | C/C=C/C[C@@H](C)[C@@H](O)[C@H]1C(=O)N[C@@H](CC)C(=O)N(C)CC(=O)N(C)[C@@H](C)C(=O)N[C@@H](C)C(=O)N(C)CC(=O)N[C@@H](C)C(=O)N[C@H](C)C(=O)N(C)[C@@H](CC(C)C)C(=O)N(C)[C@@H](CC(C)C)C(=O)N(C)[C@@H](C(C)C)C(=O)N1C [Compound C18] | 97.88
3 | C/C=C/C[C@@H](C)[C@@H](O)[C@H]1C(=O)N[C@@H](CC)C(=O)N(C)CC(=O)N(C)[C@@H]([C@@H](C)CC)C(=O)N[C@@H](C(C)C)C(=O)N(C)CC(=O)N[C@@H](C)C(=O)N[C@H](C)C(=O)N(C)[C@@H](CC(C)C)C(=O)N(C)[C@@H](CC(C)C)C(=O)N(C)[C@@H](C(C)C)C(=O)N1C [Compound C25] | 99.63
4 | C/C=C/C[C@@H](C)[C@@H](O)[C@H]1C(=O)N[C@@H](CC)C(=O)N(C)CC(=O)N(C)[C@@H]([C@@H](C)O)C(=O)N[C@@H](C(C)(C)C)C(=O)N(C)[C@@H](C)C(=O)N[C@@H](CC(C)C)C(=O)N[C@H](C)C(=O)N(C)[C@@H](CC(C)C)C(=O)N(C)[C@@H](CC(C)C)C(=O)N(C)[C@@H](C(C)C)C(=O)N1C [Compound C75] | 96.12
5 | C/C=C/C[C@@H](C)[C@@H](O)[C@H]1C(=O)N[C@@H](CC)C(=O)N(C)CC(=O)N(C)[C@@H](C(C)C)C(=O)N[C@@H](C(C)(C)C)C(=O)N(C)[C@@H](C)C(=O)N[C@@H](CC(C)C)C(=O)N[C@H](C)C(=O)N(C)[C@@H](CC(C)C)C(=O)N(C)[C@@H](CC(C)C)C(=O)N(C)[C@@H](C(C)C)C(=O)N1C [Compound C77] | 99.56
6 | C/C=C/C[C@@H](C)[C@@H](O)[C@H]1C(=O)N[C@@H](CC)C(=O)N(C)CC(=O)N(C)[C@H](C)C(=O)N[C@@H](C(C)C)C(=O)N(C)[C@@H](C)C(=O)N[C@@H](CC(C)C)C(=O)N[C@H](C)C(=O)N(C)[C@@H](CC(C)C)C(=O)N(C)[C@@H](CC(C)C)C(=O)N(C)[C@@H](C(C)C)C(=O)N1C [Compound C83] | 99.35
7 | C/C=C/C[C@@H](C)[C@@H](O)[C@H]1C(=O)N[C@@H](CC)C(=O)N(C)CC(=O)N(C)[C@@H](Cc2ccc(O)cc2)C(=O)N[C@@H](C(C)C)C(=O)N(C)[C@@H](CC(C)C)C(=O)N[C@@H](CC)C(=O)N[C@H](C)C(=O)N(C)[C@@H](CC(C)C)C(=O)N(C)[C@@H](CC(C)C)C(=O)N(C)[C@@H](C(C)C)C(=O)N1C [Compound C100] | 95.72
8 | C/C=C/C[C@@H](C)[C@@H](O)[C@H]1C(=O)N[C@@H](CC)C(=O)N(C)CC(=O)N(C)[C@@H](CCC)C(=O)N[C@@H](C(C)C)C(=O)N(C)[C@@H](CC(C)C)C(=O)N[C@@H](CC)C(=O)N[C@H](C)C(=O)N(C)[C@@H](CC(C)C)C(=O)N(C)[C@@H](CC(C)C)C(=O)N(C)[C@@H](C(C)C)C(=O)N1C [Compound C102] | 99.30
